# Antibody variant affinities, Ab-14 light chain, assay B

Values reported by Li et al. 2023, doi:10.1038/s41467-023-39022-2 (FLAb copy).

Target peptide (SARS-CoV-2 spike, HR2 region): PDVDLGDISGINAS

Ab-14 is the parent antibody, in scFv form: VH, then a 15-residue (Gly4Ser)3 linker, then VL. The heavy chain is unchanged in all variants.
VH: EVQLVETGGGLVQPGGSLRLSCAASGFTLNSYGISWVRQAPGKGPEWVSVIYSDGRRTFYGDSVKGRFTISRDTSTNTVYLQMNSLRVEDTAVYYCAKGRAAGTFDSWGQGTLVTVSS
VL: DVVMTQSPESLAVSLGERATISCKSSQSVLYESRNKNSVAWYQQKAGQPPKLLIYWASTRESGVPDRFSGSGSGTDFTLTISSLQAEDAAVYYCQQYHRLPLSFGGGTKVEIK

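Phage display of a naive human antibody library on the peptide gave the parent. The variants were designed computationally from a first round of random CDR variants and then made and measured. Several design methods are mixed in this list. AlphaSeq pools MATa yeast showing the antibodies with MATalpha yeast showing the peptide. The frequency of each diploid, read from paired DNA barcodes, reflects how well the two displayed proteins bind. Scores were corrected for input abundance and mapped to Kd with protein pairs of known affinity run in the same pool. Mating was done six times.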

Substitutions are numbered in sequence along the VL above, starting at 1 (not Kabat). This list holds designs with at most six substitutions. Each Kd is an estimate from the mating assay, the geometric mean of the replicates in which the pair was seen; lower is stronger. "nd" marks a missing value. The strain was present, yet no cells mated with the target were sequenced in any replicate, which points to weak or no binding. The authors' rule: three or more of the six replicates give a measured affinity, fewer mean a poor binder. Three control strains display no target. For all light chain designs, 4% of the pairings with them gave a signal, with a median of 430 nM and one signal in twenty below 38 nM, so weak values seen in few replicates may be background. Also given: how often the same scFv was detected with the empty control strains. A sequence measured in both rounds can read differently, since the two assays cover different ranges.

The variant S26E+S58D+R99H showed 37 nM (5 of 6 replicates; controls 0 of 18). The variant S25L+S26Q+S38N+W56G+S62D gave 230 pM (6 of 6 replicates; controls 0 of 18). With V29W+L30G+W56G+T59Q the result was 1.4 nM (6 of 6 replicates; controls 0 of 18). The variant S25L+W56N+S58N+E61L showed 1.3 nM (6 of 6 replicates; controls 2 of 18). The variant S25I+V29Q+S33D+N37K+W56N+E61C gave 990 pM (6 of 6 replicates; controls 0 of 18). The variant V29E+W56N+T59Y showed 910 pM (6 of 6 replicates; controls 3 of 18). The variant V29M+Y31E+N35Y+N37Y+W56N showed 5.4 nM (6 of 6 replicates; controls 0 of 18). For S25F+S26P+V29Y+W56N, the assay gave 1.0 nM (6 of 6 replicates; controls 4 of 18). The variant E32D+R34V+W56Q+A57G+R60L showed 4.1 nM (6 of 6 replicates; controls 0 of 18).

For Y31F+K36L+V39I+W56E+L100M, the assay gave 5.5 nM (6 of 6 replicates; controls 0 of 18). The variant S25V+S26R+V29T+T59Q showed 5.3 nM (6 of 6 replicates; controls 2 of 18). With S25L+S26D+W56S+T59Q the result was 930 pM (6 of 6 replicates; controls 3 of 18). For S25D+V29W+S38P+Q96Y+S103D, the assay gave 3.5 nM (1 of 6 replicates; controls 0 of 18). The variant K24L+V29G gave 150 nM (3 of 6 replicates; controls 1 of 18). With L30W+W56E+S62Q the result was 2.5 nM (6 of 6 replicates; controls 1 of 18). For Q27I+V29G+R34G+W56E, the assay gave 1.1 nM (6 of 6 replicates; controls 2 of 18). For S25L+S26P+V29M+W56H, the assay gave 680 pM (6 of 6 replicates; controls 0 of 18). The variant N35D+W56H+H98A showed 3.3 nM (6 of 6 replicates; controls 1 of 18).

The variant S25L+V29E+W56N gave 400 pM (6 of 6 replicates; controls 1 of 18). The variant S25V+S26Q+V29F+W56N showed 1.6 nM (6 of 6 replicates; controls 4 of 18). The variant R34A+P101F gave nd (0 of 6 replicates; controls 0 of 18). With S26L+S28E+V29Q+L30E+W56H+S62D the result was 1.1 nM (6 of 6 replicates; controls 1 of 18). The variant S25V+Y31F+S33W+W56D gave 930 pM (6 of 6 replicates; controls 1 of 18). For S25I+S26Q+V29E+Y31Q+W56T+T59E, the assay gave 1.5 nM (6 of 6 replicates; controls 1 of 18). With S25Q+S33W+W56D+A57G the result was 590 pM (6 of 6 replicates; controls 0 of 18). For Y31E+R34V+W56S, the assay gave 2.8 nM (6 of 6 replicates; controls 4 of 18). For S25V+V29E+S33D+W56N, the assay gave 3.2 nM (6 of 6 replicates; controls 0 of 18).

The variant S25Q+V29E+W56D+T59Q+S62D+Q96D showed 4.4 nM (6 of 6 replicates; controls 0 of 18). For Q27I+V29H+W56E+S103M, the assay gave 780 pM (6 of 6 replicates; controls 0 of 18). The variant A57G+Q96D gave 2.3 nM (6 of 6 replicates; controls 0 of 18). For S25F+Q27F+L30Q+W56D+S62G+L100M, the assay gave 1.3 nM (6 of 6 replicates; controls 1 of 18). The variant S25L+V29D+W56H showed 1.5 nM (6 of 6 replicates; controls 0 of 18). With S25L+Q27G+W56E+S62Q the result was 490 pM (6 of 6 replicates; controls 0 of 18). The variant N35T+S62K gave 170 nM (4 of 6 replicates; controls 1 of 18). With S25P+S26Q+K36E+W56Q+S62P the result was 780 pM (6 of 6 replicates; controls 4 of 18). With R34I+S38G+W56G the result was 7.0 nM (6 of 6 replicates; controls 0 of 18).

For S25L+S26Q+Q27G+V29W+W56N, the assay gave 730 pM (6 of 6 replicates; controls 1 of 18). The variant K36S+W56S+S103F showed 2.4 nM (6 of 6 replicates; controls 0 of 18). The variant S25L+S26Y+W56N+E61Y gave 1.4 nM (6 of 6 replicates; controls 0 of 18). The variant S25L+K36P+W56N+Q96D showed 2.6 nM (6 of 6 replicates; controls 0 of 18). The variant S25F+S33D+N35T+K36Y+W56N gave 4.8 nM (6 of 6 replicates; controls 1 of 18). With S25L+S38A+W56D+Q96L+R99W the result was 100 nM (6 of 6 replicates; controls 0 of 18). The variant S25L+S26Q+V29W+W56D+E61L gave 960 pM (6 of 6 replicates; controls 0 of 18). The variant S25L+V29S+W56N+E61M gave 830 pM (6 of 6 replicates; controls 0 of 18). The variant S25H+Y97A gave nd (0 of 6 replicates; controls 0 of 18).

For S25I+Y31A+W56D, the assay gave 410 pM (6 of 6 replicates; controls 0 of 18). The variant S26L+V29D+K36F+W56H+S62D showed 7.3 nM (6 of 6 replicates; controls 0 of 18). With S25I+S58H the result was 13 nM (6 of 6 replicates; controls 0 of 18). For S25L+V29A+W56E, the assay gave 6.1 nM (6 of 6 replicates; controls 0 of 18). With S28G+V29W+W56N+S62D the result was 300 pM (6 of 6 replicates; controls 1 of 18).

Top 5 of the variants detected in all replicates, tightest first:

changes	Kd	seen in	control signals
S25L+S26Q+S38N+W56G+S62D	230 pM	6/6	0/18
S28G+V29W+W56N+S62D	300 pM	6/6	1/18
S25L+V29E+W56N	400 pM	6/6	1/18
S25I+Y31A+W56D	410 pM	6/6	0/18
S25L+Q27G+W56E+S62Q	490 pM	6/6	0/18